For the test, the target named is Endothelin-1 receptor (Rattus norvegicus, UniProt P26684). Put plainly: Antagonism of [125 I]ET-1 binding to the rat endothelin receptor in vascular smooth muscle VSM-A10 cells. In kind it is cell-based.

Amino acid sequences for entries named in this document (tags omitted).
UniProt P26684, whole entry: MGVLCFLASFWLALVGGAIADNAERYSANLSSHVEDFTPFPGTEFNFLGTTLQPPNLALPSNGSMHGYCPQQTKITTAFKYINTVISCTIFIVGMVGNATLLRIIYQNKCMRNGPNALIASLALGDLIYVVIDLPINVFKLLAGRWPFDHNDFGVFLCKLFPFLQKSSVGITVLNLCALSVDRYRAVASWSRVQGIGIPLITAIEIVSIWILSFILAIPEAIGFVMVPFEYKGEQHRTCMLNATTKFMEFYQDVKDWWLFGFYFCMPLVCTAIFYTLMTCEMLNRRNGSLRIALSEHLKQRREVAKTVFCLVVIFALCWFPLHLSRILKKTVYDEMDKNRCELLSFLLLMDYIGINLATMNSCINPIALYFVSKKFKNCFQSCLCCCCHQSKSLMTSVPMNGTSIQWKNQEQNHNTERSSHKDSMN

For the compound `Cc1noc(NS(=O)(=O)c2cccc3c(N=C(c4ccccc4)c4ccccc4)cccc23)c1C`, the half-inhibitory concentration (IC50) is 39 µM.

As a reminder, the IC50 is the concentration at which inhibition is half-maximal. Read a low IC50 as greater potency in that assay.
